The target in test [1] is Magnaporthe oryzae bilirubin oxidase (BOD), produced in Pichia pastoris, SEQ. ID. No.3 (SEQ. ID. No.1 with additional N-terminal serine) (Pyricularia oryzae, UniProt G4MQU0).
Test [2] relates to Myrothecium verrucaria bilirubin oxidase (BOD). Particulars: pH 6.5; Kataoka et al. 2005; cited from earlier work.
The test system of test [3] is Myrothecium verrucaria bilirubin oxidase (BOD), produced in Pichia pastoris. To be noted: pH 6.5, with respect to ABTS; cited from earlier work.

The structures appear in SMILES notation.

Usually kcat stands for the number of substrate molecules converted per active site and unit of time at saturation.

As for `CCn1c(=NN=c2sc3cc(S(=O)(=O)O)ccc3n2CC)sc2cc(S(=O)(=O)O)ccc21` [ABTS, 2,2′-azino-bis(3-ethylbenzothiazoline-6-sulphonic acid)], the kcat in test [1] (37° C., 0.1M citrate/phosphate buffer pH 4, ABTS 0 to 4 mM) was 664 s⁻¹; in test [2] it was 115 s⁻¹; in test [3], 164 s⁻¹. In addition, the “kcat (for ABTS)” value in test [1] (Table I, substrate ABTS) worked out at 668 s⁻¹.
